{"sequences": {"note": "Protein sequences, listed by entry. Tags and fused reporters are not part of them. Lines headed by an entry give the natural chain unless they say otherwise; changes in a name come on top.", "UniProt P31645": "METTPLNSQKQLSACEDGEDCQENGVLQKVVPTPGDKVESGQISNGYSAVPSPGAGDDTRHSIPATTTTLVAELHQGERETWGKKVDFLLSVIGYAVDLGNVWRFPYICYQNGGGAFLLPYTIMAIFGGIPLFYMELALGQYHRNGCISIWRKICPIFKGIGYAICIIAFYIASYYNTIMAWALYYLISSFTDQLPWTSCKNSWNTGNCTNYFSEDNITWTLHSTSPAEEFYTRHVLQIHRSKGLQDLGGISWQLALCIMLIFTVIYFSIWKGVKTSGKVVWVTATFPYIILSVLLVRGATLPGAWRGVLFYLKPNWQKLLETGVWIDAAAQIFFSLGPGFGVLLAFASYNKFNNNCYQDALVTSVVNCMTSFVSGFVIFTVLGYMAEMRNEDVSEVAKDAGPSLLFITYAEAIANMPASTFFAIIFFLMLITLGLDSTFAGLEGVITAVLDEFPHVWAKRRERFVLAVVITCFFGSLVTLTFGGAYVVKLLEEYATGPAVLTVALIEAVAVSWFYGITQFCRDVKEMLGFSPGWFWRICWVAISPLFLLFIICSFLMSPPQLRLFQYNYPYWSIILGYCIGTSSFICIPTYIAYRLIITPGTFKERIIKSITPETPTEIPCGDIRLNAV", "UniProt P23975": "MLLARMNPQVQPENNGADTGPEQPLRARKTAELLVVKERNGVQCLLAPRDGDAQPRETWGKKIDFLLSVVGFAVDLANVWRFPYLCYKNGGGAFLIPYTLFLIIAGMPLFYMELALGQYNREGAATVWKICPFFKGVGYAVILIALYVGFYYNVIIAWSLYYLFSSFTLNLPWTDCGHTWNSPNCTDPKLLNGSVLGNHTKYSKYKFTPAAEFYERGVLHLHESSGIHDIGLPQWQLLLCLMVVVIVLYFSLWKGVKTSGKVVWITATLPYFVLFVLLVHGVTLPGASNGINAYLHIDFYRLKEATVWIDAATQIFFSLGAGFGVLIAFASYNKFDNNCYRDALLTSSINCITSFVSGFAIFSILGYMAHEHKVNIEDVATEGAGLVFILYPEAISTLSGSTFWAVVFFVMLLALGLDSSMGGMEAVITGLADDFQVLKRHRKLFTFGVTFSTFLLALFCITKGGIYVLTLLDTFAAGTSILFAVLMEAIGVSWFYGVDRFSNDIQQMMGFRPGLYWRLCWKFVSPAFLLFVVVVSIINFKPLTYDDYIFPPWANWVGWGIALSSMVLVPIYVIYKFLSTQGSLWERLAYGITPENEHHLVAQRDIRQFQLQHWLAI"}, "source": "patent EP2351737A1", "about": "“3-Amino-1-arylpropyl indoles and aza-substituted indoles” (F. Hoffmann-La Roche AG, priority 2005, dated 2007)", "key": {"[1]": {"molecular_target": "Human Serotonin Transporter (hSERT) (Homo sapiens, UniProt P31645)", "test": "Human Serotonin Transporter (hSERT) Scintillation Proximity Assay (SPA), competition with [3H]-Citalopram", "assay_type": "binding", "conditions": "membranes of HEK-293 cells expressing recombinant hSERT, Ki by Cheng-Prusoff"}, "[2]": {"molecular_target": "Human Norepinephrine Transporter (hNET) (Homo sapiens, UniProt P23975)", "test": "Human Norepinephrine Transporter (hNET) Scintillation Proximity Assay (SPA), competition with [3H]-Nisoxetine"}}, "data": [{"substance": "[3-(7-Chloro-1H-indol-5-yl)-3-phenyl-propyl]-methyl-amine", "values": [{"measurement": "pKi SERT", "setting": "[1]", "result": 7.89}, {"measurement": "pKi NET", "setting": "[2]; competition with [3H]-Nisoxetine, membranes of HEK-293 cells expressing recombinant hNET, Ki by Cheng-Prusoff", "result": 8.84}, {"measurement": "IC50", "setting": "[2]; hNET SPA, [3H]-Nisoxetine", "result": "approximately 9.0"}]}]}
